{
  "source": "patent US20160311886A1",
  "about": "“Constructs Binding to Phosphatidylserine and Their Use in Disease Treatment and Imaging” (Board of Regents, The University of Texas System, priority 2005, published 2016)",
  "system": "HUVEC",
  "test": "MTT cytotoxicity assay",
  "type": "cell-based, human",
  "method": "The biotinylated duramycin construct DLB was prepared as described in Example XV. The unmodified duramycin compound and DLB were tested for cytotoxic effects on HUVEC using an MTT assay.",
  "data": [
    {"substance": "duramycin", "values": [
      {"measurement": "cytotoxic effects on HUVEC", "value": "dose-dependent toxicity"}
    ]}
  ]
}
